Experimental data published in US6943025B2, “Method for identifying genes involved in cell proliferation” (Children's Medical Center Corporation, priority 2001, dated 2005).

How the values were obtained:
Wild-type fish = experiment: Carcinogenesis assay, wild-type fish exposed to carcinogens
zebrafish = experiment: Kaplan-Meier survival curve of carcinogen-treated zebrafish; settings: MNNG 2 ppm, n=40 for each group, FIG. 6(E)
[1] = wild-type fish, 24-hour exposure, MNNG 0.5, 1.0 and 2.0 ppm, DMBA 2.5, 5.0 and 10.0 ppm

N-methyl-N′-nitro-Nitrosoguanidine
tumor histology after exposure (Wild-type fish; MNNG 5 ppm, sacrificed after three months, FIGS. 17 and 18): a tumor in liver (17(B)-(C)) and testis | tumor seen in tissue sections (histology) (Wild-type fish; carcinogen-treated fish, FIG. 6): germ-cell tumor | tumor types produced (Wild-type fish; wild-type fish): more mesenchymal and testicular tumors | fish that developed tumors (Wild-type fish; [1]): 7.8% | fish that developed tumors / fish treated (Wild-type fish; [1]): 10/128 | life span versus control (zebrafish): decreased lifespan
